In BindingDB's records for PubMed 10617681 (Dupont Pharmaceuticals, 2000) one finds Ki data, which are given here for two compounds.

By UniProt entry, the sequences of proteins in these tests, tags left out. Where a name states a change or a piece, a line headed by the entry shows the natural chain unless it says otherwise.
UniProt P28335: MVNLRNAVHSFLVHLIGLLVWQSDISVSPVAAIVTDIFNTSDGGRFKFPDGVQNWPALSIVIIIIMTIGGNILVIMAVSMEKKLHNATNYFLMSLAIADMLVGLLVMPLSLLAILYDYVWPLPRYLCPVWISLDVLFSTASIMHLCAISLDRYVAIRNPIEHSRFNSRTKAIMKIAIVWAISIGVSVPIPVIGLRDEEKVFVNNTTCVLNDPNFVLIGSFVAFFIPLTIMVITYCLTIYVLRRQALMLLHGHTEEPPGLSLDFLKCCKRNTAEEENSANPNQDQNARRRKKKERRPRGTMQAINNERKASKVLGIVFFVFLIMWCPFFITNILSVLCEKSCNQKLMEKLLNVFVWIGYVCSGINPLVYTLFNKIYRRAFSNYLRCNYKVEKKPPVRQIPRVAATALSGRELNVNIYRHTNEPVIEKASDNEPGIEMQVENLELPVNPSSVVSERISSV
UniProt P41595, whole entry: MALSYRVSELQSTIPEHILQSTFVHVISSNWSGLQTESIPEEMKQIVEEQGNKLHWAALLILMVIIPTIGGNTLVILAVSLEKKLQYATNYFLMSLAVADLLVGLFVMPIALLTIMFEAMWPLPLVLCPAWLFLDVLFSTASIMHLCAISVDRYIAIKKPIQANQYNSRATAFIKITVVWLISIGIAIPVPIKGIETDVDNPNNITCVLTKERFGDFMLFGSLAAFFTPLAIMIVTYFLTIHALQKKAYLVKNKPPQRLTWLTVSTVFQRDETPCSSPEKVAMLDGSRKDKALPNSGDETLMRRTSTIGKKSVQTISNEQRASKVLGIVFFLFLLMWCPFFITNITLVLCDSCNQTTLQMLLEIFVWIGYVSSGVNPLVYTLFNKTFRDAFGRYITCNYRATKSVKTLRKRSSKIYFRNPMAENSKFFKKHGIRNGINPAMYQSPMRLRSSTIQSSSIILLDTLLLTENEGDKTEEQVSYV

The term Ki denotes a measure of affinity in units of concentration, obtained from inhibition or displacement. A high value points to a looser hold on the target.

Experiment [1] addresses 5-hydroxytryptamine receptor 2C (Homo sapiens, UniProt P28335).
Experiment [2] addresses 5-hydroxytryptamine receptor 2B (Homo sapiens, UniProt P41595).

SMILES strings stand for the structures.

As to `CCN[C@@H](C)Cc1cccc(C(F)(F)F)c1` [NSC_65801], the Ki in experiment [1] came to 2080 nM; in experiment [2] it was 3920 nM.
Compound `CCN[C@H](C)Cc1cccc(C(F)(F)F)c1` [NSC_65801] yielded a Ki in experiment [2] of 680 nM.
